Measurements: patent US12115157B2, “3-phenoxyazetidin-1-yl-heteroaryl pyrrolidine derivatives and the use thereof as medicament” (Boehringer Ingelheim International GmbH, priority 2021, dated 2024)

Sequences of proteins named here, by UniProt entry; tags and fusion partners are left off.
UniProt Q9Y2T5, whole entry: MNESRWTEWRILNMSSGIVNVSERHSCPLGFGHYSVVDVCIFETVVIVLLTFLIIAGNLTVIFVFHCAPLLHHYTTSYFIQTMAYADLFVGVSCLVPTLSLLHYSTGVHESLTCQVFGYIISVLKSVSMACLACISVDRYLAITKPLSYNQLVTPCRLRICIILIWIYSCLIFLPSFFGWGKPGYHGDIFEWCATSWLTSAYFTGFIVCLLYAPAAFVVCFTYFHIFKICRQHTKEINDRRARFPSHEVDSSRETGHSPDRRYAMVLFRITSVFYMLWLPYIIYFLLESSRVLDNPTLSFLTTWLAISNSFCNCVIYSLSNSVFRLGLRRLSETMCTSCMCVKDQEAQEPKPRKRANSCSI
UniProt Q12809, whole entry: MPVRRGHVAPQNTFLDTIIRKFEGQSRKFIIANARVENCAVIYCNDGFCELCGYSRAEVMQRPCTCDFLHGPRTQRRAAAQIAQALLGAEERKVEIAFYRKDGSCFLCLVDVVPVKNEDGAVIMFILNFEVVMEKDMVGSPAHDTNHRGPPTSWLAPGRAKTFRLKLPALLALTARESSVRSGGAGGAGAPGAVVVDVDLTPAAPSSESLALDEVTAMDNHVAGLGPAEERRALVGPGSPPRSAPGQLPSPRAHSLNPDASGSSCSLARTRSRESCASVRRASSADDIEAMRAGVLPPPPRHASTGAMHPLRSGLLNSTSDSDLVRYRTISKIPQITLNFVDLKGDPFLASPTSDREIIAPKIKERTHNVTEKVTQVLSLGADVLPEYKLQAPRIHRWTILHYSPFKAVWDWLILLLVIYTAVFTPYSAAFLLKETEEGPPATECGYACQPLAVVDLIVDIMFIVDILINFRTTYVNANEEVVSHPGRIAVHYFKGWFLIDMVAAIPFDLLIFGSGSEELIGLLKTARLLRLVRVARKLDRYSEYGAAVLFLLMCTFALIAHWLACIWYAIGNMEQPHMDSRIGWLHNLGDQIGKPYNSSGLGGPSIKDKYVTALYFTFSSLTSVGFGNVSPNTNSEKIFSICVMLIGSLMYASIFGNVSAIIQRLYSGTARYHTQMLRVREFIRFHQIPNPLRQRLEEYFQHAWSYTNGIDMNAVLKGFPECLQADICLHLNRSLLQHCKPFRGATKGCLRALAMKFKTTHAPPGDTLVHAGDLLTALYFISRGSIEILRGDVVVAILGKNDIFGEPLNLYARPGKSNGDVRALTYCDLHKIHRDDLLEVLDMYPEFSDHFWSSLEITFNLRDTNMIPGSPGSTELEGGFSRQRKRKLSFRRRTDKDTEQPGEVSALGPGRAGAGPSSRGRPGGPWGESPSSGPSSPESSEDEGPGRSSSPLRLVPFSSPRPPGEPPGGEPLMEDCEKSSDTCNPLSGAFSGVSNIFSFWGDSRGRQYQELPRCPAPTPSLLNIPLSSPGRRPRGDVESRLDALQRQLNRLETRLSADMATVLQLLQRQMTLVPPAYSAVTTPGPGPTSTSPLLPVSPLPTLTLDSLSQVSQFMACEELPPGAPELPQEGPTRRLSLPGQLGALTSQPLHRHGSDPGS

Columns and labels:
human GPR52 = human GPR52 (Homo sapiens (Human), UniProt Q9Y2T5); assay: HTRF assay for direct cAMP measurement; conditions: read-out: GPR52 EC50, CHO-K1 cells stably expressing recombinant human GPR52, mean EC50
Protocol: HTRF cAMP assays were performed using commercially available assay kits according to the manufacturer's instructions (cAMP Dynamic 2 Assay Kit; #62AM4PEJ, Cisbio Bioassays, Bedford, MA). An aliquot of CHO-K1 cells stably expressing recombinant human GPR52 was thawed and resuspended in cell buffer (1×PBS (w/o Ca^2+/Mg^2+)) at a density of 4×10^5 cells per mL. Test compounds were solubilized in DMSO to 10 mM stock solutions and serially diluted in DMSO using 6-fold dilutions to generate 8-point dose response curves. These serially diluted samples were then diluted 1:50 in compound dilution buffer (1×PBS (w/o Ca^2+/Mg^2+) containing 0.5 mM IBMX, 0.1% BSA) to achieve a 4× stock. […] Plates were then incubated at room temperature for one hour prior to reading. Time-resolved fluorescence measurements were collected on an EnVision® HTRF plate reader (PerkinElmer, Waltham, MA). Counts from the plate reader were fit to the cAMP standard curve included on each plate to determine the amount of cAMP in each test well. The % control was calculated based on the […]. Dose-response curves were generated from the cAMP data and analyzed using a nonlinear least squares curve-fitting program to obtain EC50 values.

hERG channel = hERG channel (Homo sapiens (Human), UniProt Q12809); assay: hERG channel assay (whole-cell patch clamp); conditions: read-out: hERG IC50, HEK293 cells stably transfected with hERG cDNA
Text: hERG Channel inhibition of compounds of the present invention was investigated as follows:
HEK (human embryonic kidney) 293 cells were stably transfected with hERG cDNA. Cells determined for use in patch clamp experiments were cultivated without antibiotic.
Cells were superfused with a bath solution containing (mM): NaCl (137), KCl (4.0), MgCl2 (1.0), CaCl2(1.8), Glucose (10), HEPES (10), pH 7.4 with NaOH. Patch pipettes were made from borosilicate glass tubing using a pipette and filled with pipette solution containing (mM): K-aspartate (130), MgCl2(5.0), EGTA (5.0), K2ATP (4.0), HEPES (10.0), pH 7.2 with KOH. Resistance of the microelectrodes was typically in the range between 2 MΩ and 5 MΩ.
Membrane currents were recorded using an EPC-10 patch clamp amplifier (HEKA Electronics, Lambrecht, FRG) and PatchMaster software (HEKA). hERG-mediated membrane currents were recorded at typically 28° C., using the whole-cell configuration of the patch-clamp technique. […] During each inter-pulse interval 4 pulses scaled down by a factor of 0.2 were recorded for a P/n leak subtraction procedure. […] The remaining uncompensated Rs was recorded as well as actual temperature and holding current. […]
Peak current amplitudes were measured 3 ms after the ramp to +40 mV. […] Residual currents (I/I0) were calculated for each cell as the fraction of actual average peak current and average baseline peak current. […]

human plasma proteins = assay: Human plasma protein binding assay (equilibrium dialysis); conditions: 1 μM, 2 hours, 37° C.
Protocol: Equilibrium dialysis (ED) technique was used to determine the approximate in vitro fractional binding of test compounds to plasma proteins. Dianorm Teflon dialysis cells (micro 0.2) were used. Each dialysis cell consists of a donor and an acceptor chamber, separated by an ultrathin semipermeable membrane with a 5 kDa molecular weight cut-off. Stock solutions for each test compound were prepared in DMSO at 1 mM and serially diluted to obtain a final test concentration of 1 μM. The subsequent dialysis solutions were prepared in plasma (supplemented with NaEDTA as anticoagulant), and aliquots of 200 μL test compound dialysis solution in plasma were dispensed into the donor (plasma) chambers. Aliquots of 200 μL dialysis buffer (100 mM potassium phosphate, pH 7.4) were dispensed into the buffer (acceptor) chamber. Incubation was carried out for 2 hours under rotation at 37° C. for establishing equilibrium.
At the end of the dialysis period, aliquots obtained from donor and acceptor chambers, respectively, were transferred into reaction tubes, spiked with Internal Standard solution and processed for HPLC-MS/MS analysis. Analyte concentrations were quantified in aliquots of samples by HPLC-MS/MS against external calibration curves.
Percent bound was calculated using the formula: % bound=(plasma concentration−buffer concentration/plasma concentration)×100

human hepatocytes = assay: Metabolic stability in human hepatocytes; conditions: human hepatocyte suspension, 1 μM; predicted hepatic clearance as percentage of hepatic blood flow
Protocol: The metabolic degradation of a test compound was assayed in a human hepatocyte suspension. After recovery from cryopreservation, human hepatocytes were diluted in Dulbecco's modified eagle medium (supplemented with 3.5 μg glucagon/500 mL, 2.5 mg insulin/500 mL, 3.75 mg hydrocortisone/500 mL, 5% human serum) to obtain a final cell density of 1.0×10^6 cells/mL or 4.0×10^6 cells/mL, depending on the metabolic turnover rate of the test compound.
Following a 30 minutes preincubation in a cell culture incubator (37° C., 10% CO2), test compound solution was spiked into the hepatocyte suspension, resulting in a final test compound concentration of 1 μM and a final DMSO concentration of 0.05% (v/v).
The cell suspension was incubated at 37° C. […]
The percentage of remaining test compound was calculated using the peak area ratio (test compound/internal standard) of each incubation time point relative to the time point 0 peak area ratio. […]
In vitro intrinsic clearance (CLint) was calculated from in vitro T1/2 and scaled to whole liver using a hepatocellularity of 120×10^6 cells/g liver, a human liver per body weight of 25.7 g liver/kg as well as in vitro incubation parameters, applying the following equation: CL_INTRINSIC_IN VIVO[mL/min/kg]=(CL_INTRINSIC[μL/min/10^6 cells]×hepatocellularity[10^6 cells/g liver]×liver factor[g/kg body weight])/1000 […]

With `CC(=O)N1C[C@@H](F)[C@@H](NC(=O)c2nccnc2N2CC(Oc3ccc(F)c(F)c3)C2)C1` (relative stereo) the EC50 (human GPR52) was 92 nM, the IC50 (hERG channel) was > 10000 nM and the “Hu PPB” value (human plasma proteins) was 72.3 % bound. For the same compound, the “Human HepStab” value (human hepatocytes) was <4.1 % QH.
